Values quoted from earlier work as cited in patent US20030013883A1, “Tropane analogs binding to monoamine transporters” (priority 2000, published 2003).

By UniProt entry, the sequences of proteins in these tests, tags left out.
UniProt P23977, whole entry: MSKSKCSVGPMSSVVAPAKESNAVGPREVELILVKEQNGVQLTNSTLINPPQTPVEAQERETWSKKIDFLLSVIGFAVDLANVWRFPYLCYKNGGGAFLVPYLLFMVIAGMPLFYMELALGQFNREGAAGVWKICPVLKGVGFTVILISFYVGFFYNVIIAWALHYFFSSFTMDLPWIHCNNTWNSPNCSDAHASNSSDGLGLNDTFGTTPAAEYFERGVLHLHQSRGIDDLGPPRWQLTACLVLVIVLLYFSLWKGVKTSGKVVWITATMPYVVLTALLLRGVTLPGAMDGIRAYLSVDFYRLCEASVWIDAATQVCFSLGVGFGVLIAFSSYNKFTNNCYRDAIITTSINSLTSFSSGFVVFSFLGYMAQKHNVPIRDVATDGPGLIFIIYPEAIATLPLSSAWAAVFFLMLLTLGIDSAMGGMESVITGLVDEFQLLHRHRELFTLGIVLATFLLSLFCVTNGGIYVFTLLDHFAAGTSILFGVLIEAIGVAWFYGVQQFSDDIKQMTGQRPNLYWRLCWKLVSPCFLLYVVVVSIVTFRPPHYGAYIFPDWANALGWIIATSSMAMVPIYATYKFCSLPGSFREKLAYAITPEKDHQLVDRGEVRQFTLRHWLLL

Target: dopamine transporter (DAT) (Rattus norvegicus, UniProt P23977)
Parameters: For DAT assays, corpus striatum tissue from rat forebrain was rapidly dissected on ice; from tissue; host or cells: rat corpus striatum
Conditions: radioligand constant used in Cheng-Prusoff conversion; cited from earlier work

SMILES: c1ccc(CCCN2CCN(CCOC(c3ccccc3)c3ccccc3)CC2)cc1 [[^3H]GBR-12935]
- Kd: 1 nM
